This note sets out measurements from patent US6930118B2, “3-Oxadiazol-5-yl-1-aminoalkyl-1h-indole derivatives” (Amrad Operations Pty. Ltd., priority 2001, dated 2005).

Sequences of proteins named here, by UniProt entry; tags and fusion partners are left off.
UniProt P20272, whole entry: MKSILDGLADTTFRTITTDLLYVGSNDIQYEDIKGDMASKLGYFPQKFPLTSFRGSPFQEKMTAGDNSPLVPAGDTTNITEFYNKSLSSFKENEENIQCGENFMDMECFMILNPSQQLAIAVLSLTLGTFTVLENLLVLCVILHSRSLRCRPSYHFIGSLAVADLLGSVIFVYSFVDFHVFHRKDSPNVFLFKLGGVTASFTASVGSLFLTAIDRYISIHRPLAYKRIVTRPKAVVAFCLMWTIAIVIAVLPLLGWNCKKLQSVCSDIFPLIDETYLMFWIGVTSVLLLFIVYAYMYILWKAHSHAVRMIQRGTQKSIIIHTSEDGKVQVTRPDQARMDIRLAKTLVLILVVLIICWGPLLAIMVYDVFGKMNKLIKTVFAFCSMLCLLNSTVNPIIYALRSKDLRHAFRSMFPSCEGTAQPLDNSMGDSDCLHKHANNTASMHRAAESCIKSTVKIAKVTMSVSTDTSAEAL

What is called IC50 is the concentration at which inhibition is half-maximal. Read a high IC50 as a need for much substance.

The target of test [1] is T1, CB1 receptor (Rattus norvegicus, UniProt P20272).
T1 construct: the cerebellum was dissected away from the rest of the brain, weighed and homogenised; from tissue; host or cells: Sprague Dawley rat cerebellum membranes
The test is described as follows: Radioligand binding assay, rat cerebellum membranes. The method, then: (§1) The affinity of compounds at cannabinoid receptors is routinely assessed using ligand binding assays known to those skilled in the art. Radioligand binding assays were conducted using rat cerebellum or rat spleen. The cerebellum of the rat is known to express predominantly, if not exclusively, the CB1 receptor subtype (20,21). Thus, binding constants obtained from these studies are characterised by a single affinity value, as only one receptor type is labelled. […] In contrast, biphasic binding curves in the spleen characterised by two affinity constants represent the profile of compounds showing selectivity for one receptor subtype over another. […]
(§2) Ligand binding assays were performed in polypropylene tubes in a total volume of 1 ml containing Tris-HCl buffer, a final concentration of 1 mg/ml BSA, and varying concentrations of drugs. […] Vials were left to stand overnight before the radioactivity was determined using a Model 1409 DSA Liquid Scintillation counter (EG&E Wallac, Gaithersburg, Md., U.S.A.).
(§3) The resulting radioligand binding curves were analyzed by nonlinear regression using the program PRISM 3.0 (GraphPad Software, San Diego, Calif.) in order to derive ligand affinity estimates for the cannabinoid receptor(s).

Test [2] addresses T2, CB2 receptor (Rattus norvegicus, UniProt Q9QZN9).
T2 sequence (Q9QZN9 1-343 limits assumed): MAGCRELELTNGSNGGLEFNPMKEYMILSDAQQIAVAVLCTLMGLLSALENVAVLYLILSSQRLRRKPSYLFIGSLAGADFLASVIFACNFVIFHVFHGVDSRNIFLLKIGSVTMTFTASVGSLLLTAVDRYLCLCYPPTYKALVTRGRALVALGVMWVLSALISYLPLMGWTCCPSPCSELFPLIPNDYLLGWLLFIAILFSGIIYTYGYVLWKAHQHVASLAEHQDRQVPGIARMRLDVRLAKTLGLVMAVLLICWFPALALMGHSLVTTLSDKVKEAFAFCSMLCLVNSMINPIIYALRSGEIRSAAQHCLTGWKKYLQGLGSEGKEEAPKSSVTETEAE
The test is described as follows: Radioligand binding assay, rat spleen membranes. The method, then:
as §1, §2, §3

For the compound `CCCCC/C=C\C/C=C\C/C=C\C/C=C\CCCC(=O)NCCO` [Anandamide, reference compound], the IC50 in test [1] was 1000 nM; in test [2] it was less than 1000 nM.
